# From paper PMC9681850, “Structural basis of synthetic agonist activation of the nuclear receptor REV-ERB” (Nature Communications, 2022)
# Key:
# [1] = molecular target: T1, REV-ERBα LBD (Homo sapiens, UniProt P20393); assay: scintillation proximity radioligand binding assay with 3H-STL1267; set-up: made in house; conditions: SPA, read-out: Ki, displacement of 3H-STL1267
# T1 sequence (P20393 284-614 limits assumed): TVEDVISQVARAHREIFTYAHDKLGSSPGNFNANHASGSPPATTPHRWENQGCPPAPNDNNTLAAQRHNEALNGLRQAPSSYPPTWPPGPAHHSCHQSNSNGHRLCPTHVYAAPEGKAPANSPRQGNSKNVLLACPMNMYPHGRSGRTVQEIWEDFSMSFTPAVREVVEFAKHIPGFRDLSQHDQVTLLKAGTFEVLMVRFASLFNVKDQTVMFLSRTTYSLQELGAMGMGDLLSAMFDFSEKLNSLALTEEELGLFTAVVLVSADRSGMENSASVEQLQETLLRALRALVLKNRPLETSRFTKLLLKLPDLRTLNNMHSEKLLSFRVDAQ
# [2] = molecular target: T1, REV-ERBα LBD; assay: FRET assay of NCoR ID1 CoRNR box recruitment; assay type: biochemical; set-up: agonist-dependent recruitment of NCoR ID1 CoRNR box to the REV-ERBα-LBD
# Excerpt: Our previous work on the structure activity relationship of GSK4112/SR9009 chemical scaffold (Fig. 1a) as well as that of others[18]–[20], led us to seek other scaffolds that would provide improved properties. […] We noted a recent patent that described a series of REV-ERB agonists (6-substituted[1,2,4]triazolo[4,3-b]pyridazines) in assays that detected the ability of small molecules to enhance the interaction of REV-ERBα with NCoR either in biochemical or cell-based assays. […] A FRET assay that detects agonist-dependent recruitment of NCoR ID1 CoRNR box to the REV-ERBα-LBD was utilized to compare the activity of STL1267 to SR9009 (Fig. 1c). We observed dose-dependent recruitment of NCoR peptide with increasing amounts of either STL1267 or SR9009. […] The high potency of STL1267 led us to consider the development of a radioligand binding assay that would detect direct binding of ligands to the LBD of REV-ERBα and REV-ERBβ.
# A serial dilution of REV-ERB agonist, STL1267 or SR9009, was prepared in buffer (0.1% Triton, 5 mM DTT, PBS). Histidine tagged REV-ERBα/β complexed with heme was added to each well to a final concentration of 4 nM. […] The lanthascreen assay protocol (Dual PMT, excitation 340 nm, dual emission 495/520, Gain 110/110) was used to read the plate.
# [3] = molecular target: T2, full length human REV-ERBα (Homo sapiens, UniProt P20393); assay: cell-based two-hybrid luciferase reporter assay (REV-ERBα-FL/GAL4-DBD + NCoR-Vp16, HEK UAS-luc cells); conditions: HEK293 UAS-luc cells, 24 h; read-out: EC50, recruitment of NCoR-Vp16
# T2 construct: expressed in transfected cells; host or cells: HEK293 cells with stably integrated GAL4-UAS luciferase reporter
# Excerpt: We next assessed the activity of STL1267 in a cell-based assay. We utilized a chimeric construct expressing full length human REV-ERBα (REV-ERBα-FL) fused to the DNA-binding domain (DBD) of yeast transcription factor GAL4. HEK293 cells stably expressing a GAL4 responsive luciferase reporter were co-transfected with REV-ERBα GAL4-DBD and NCoR-Vp16. This format of the assay essentially functions as a mammalian 2-hybrid assay and detects REV-ERB agonists as activators of transcription effectively enhancing the sensitivity of such an assay from the typical one hybrid system that detects enhancement of transcriptional repression. […] The maximal efficacy for recruitment of NCoR-VP16 was ~8-fold greater for STL1267 vs. SR9009.
# The NCoR-Vp16 plasmid and REV-ERBα/β-FL GAL4-DBD wild-type or point mutation plasmids were incubated with the transfection agent, Lipofectamine 2000. GFP plasmid was also in the transfection mix to confirm transfection efficiency. HEK cells were plated in 10 cm dishes for western blot analysis, and HEK UAS-luc cells were plated in 96 well plates for luciferase assay analysis. Prior to cellular adherence, transfection mix was added. The cells and transfection mix were incubated at 37 °C in a humidified atmosphere of 5% CO2. […] Cells were incubated with the compound for 24 h, prior to luciferin addition and luminescence read out.
structure (smiles),measurement,setting,value
"CCOC(=O)N1CCC(CN(Cc2ccc(Cl)cc2)Cc2ccc([N+](=O)[O-])s2)C1 (stereo not drawn) [SR9009, reference compound]",Ki,[1],0.68 µM
same,EC50,[2],1.9 µM
same,EC50,[3],4.7 µM
